Literature values, collected in patent publication US20170247459A1, “COMBINATION THERAPY OF ANTIBODIES AGAINST HUMAN CSF-1R AND USES THEREOF” (HOFFMANN-LA ROCHE INC., priority 2012, published 2017).
pKd: −log10 of the molar value.

By UniProt entry, the sequences of proteins in these tests, tags left out. Residues count along the entry.
UniProt P25942, 21-277: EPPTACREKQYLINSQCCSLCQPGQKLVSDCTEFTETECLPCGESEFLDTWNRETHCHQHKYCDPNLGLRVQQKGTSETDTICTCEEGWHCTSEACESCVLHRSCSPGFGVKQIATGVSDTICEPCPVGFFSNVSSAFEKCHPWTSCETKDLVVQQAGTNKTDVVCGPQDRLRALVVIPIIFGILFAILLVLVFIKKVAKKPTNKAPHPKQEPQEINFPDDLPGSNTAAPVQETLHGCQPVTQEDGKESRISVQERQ

Target: CD40 (Homo sapiens, UniProt P25942)
Conditions: cited from earlier work

In the case of “CP-870,893: fully human IgG2 CD40 agonist antibody developed by Pfizer, VH SEQ ID NO: 88, VL SEQ ID NO: 89”, the “blocking of binding of CD40L (in words)” value is given as “does not block binding of CD40L” and the pKd (read-out: KD (binds CD40)) is given as 9.46.
